Measured values taken from PubChem BioAssay AID493033 (ICCB-Longwood Screening Facility, Harvard Medical School, 2011).
The entries are a selection whose mix differs from that of the whole data set. Active and inactive are the calls of the source. No stated cut-off is given here; in the data, active means inhibition mostly above about 56% (no sharp cut-off); inactive means mostly below about 77%.

Chains of the proteins cited; added tags and fusions are not shown.
UniProt P9WFX0, whole entry: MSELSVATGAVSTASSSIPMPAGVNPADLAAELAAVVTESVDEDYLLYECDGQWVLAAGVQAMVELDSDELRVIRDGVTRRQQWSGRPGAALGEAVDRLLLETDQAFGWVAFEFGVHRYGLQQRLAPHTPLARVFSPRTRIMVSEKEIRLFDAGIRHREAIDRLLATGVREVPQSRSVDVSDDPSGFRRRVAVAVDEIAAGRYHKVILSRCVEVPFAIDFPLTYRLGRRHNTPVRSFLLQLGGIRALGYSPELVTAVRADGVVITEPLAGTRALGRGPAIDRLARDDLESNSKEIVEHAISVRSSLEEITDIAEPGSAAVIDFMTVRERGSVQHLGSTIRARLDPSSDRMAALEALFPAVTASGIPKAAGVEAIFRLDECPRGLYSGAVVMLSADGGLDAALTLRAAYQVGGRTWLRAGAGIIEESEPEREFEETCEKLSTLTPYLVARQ

The compounds below were run against Salicylate synthase (Mycobacterium tuberculosis (strain CDC 1551 / Oshkosh)) (UniProt P9WFX0) (assay: inhibitors of M. tuberculosis MbtI – biochemical, fluorescence intensity, primary screen (AID 493033)). Conditions: purified MbtI enzyme, fluorescence intensity read-out; hits give high values; concentration not given here.

Row | Structure (SMILES) | inhibition
1 | CN(CCCl)CCCl | inactive: -20.6%
